Results from ChEMBL document CHEMBL3407416, “Discovery of (R)-8-(1-(3,5-difluorophenylamino)ethyl)-N,N-dimethyl-2-morpholino-4-oxo-4H-chromene-6-carboxamide (AZD8186): a potent and selective inhibitor of PI3Kβ and PI3Kδ for the treatment of PTEN-deficient cancers” (J Med Chem, 2015).

Protein sequences, listed by entry. Tags and fused reporters are not part of them. Lines headed by an entry give the natural chain unless they say otherwise; changes in a name come on top.
UniProt P42338: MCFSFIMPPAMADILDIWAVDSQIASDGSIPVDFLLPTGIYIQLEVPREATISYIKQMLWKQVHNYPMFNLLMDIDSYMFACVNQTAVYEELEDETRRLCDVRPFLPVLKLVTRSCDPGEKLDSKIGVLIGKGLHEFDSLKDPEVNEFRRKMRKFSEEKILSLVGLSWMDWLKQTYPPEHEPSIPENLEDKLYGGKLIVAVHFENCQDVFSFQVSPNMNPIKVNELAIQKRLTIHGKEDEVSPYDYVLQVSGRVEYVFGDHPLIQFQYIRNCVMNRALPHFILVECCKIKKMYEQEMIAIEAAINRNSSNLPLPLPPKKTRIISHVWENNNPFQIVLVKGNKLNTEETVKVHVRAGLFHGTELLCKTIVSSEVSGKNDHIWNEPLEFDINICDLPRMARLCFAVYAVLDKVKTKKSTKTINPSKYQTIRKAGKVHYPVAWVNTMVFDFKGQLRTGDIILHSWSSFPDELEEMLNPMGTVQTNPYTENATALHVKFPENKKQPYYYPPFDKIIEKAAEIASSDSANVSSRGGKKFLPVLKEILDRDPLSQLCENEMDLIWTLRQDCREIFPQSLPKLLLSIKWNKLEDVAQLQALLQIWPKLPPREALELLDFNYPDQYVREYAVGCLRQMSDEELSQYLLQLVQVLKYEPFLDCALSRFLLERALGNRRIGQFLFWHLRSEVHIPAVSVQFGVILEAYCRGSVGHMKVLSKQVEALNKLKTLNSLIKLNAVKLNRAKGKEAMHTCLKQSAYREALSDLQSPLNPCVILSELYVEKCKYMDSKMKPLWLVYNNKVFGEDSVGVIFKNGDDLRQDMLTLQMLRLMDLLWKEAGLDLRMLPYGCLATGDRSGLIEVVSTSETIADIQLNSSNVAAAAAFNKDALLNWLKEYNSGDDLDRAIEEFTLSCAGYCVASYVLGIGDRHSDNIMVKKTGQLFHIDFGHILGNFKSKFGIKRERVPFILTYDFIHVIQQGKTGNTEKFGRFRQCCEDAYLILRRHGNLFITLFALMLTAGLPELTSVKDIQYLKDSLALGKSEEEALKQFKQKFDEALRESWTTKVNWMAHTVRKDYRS

Assays:
[1] = biological target: T1, Phosphatidylinositol 4,5-bisphosphate 3-kinase catalytic subunit beta isoform (Homo sapiens, UniProt P42338); test: Inhibition of human recombinant PI3Kbeta using PIP2 by Kinase-Glo Plus assay
[2] = biological target: T1, Phosphatidylinositol 4,5-bisphosphate 3-kinase catalytic subunit beta isoform; test: Inhibition of PI3Kbeta in PTEN-null human MDA-MB-468 cells assessed as inhibition of Akt phosphorylation after 2 hrs; assay type: cell-based

IC50 [1] [nM] | IC50 [2] [nM] | SMILES
4 | 3 | C[C@@H](Nc1cc(F)cc(F)c1)c1cc(C(=O)N(C)C)cc2c(=O)cc(N3CCOCC3)oc12 [AZD-8186]
7 | 15 | C[C@H](c1cc(C(=O)N(C)C)cc2c(=O)cc(N3CCOCC3)oc12)N(C)c1cc(F)cc(F)c1
5 | 1 | C[C@@H](Nc1cc(F)cc(Cl)c1)c1cc(C(=O)N(C)C)cc2c(=O)cc(N3CCOCC3)oc12
4 | 2 | C[C@@H](Nc1cc(F)cc(F)c1)c1cc(C(=O)N2CCC2)cc2c(=O)cc(N3CCOCC3)oc12
